Consider two substances from doi:10.1101/2020.11.17.386581.

By UniProt entry, the sequences of proteins in these tests, tags left out. Residues count along the entry.
UniProt Q07954, 20-4544: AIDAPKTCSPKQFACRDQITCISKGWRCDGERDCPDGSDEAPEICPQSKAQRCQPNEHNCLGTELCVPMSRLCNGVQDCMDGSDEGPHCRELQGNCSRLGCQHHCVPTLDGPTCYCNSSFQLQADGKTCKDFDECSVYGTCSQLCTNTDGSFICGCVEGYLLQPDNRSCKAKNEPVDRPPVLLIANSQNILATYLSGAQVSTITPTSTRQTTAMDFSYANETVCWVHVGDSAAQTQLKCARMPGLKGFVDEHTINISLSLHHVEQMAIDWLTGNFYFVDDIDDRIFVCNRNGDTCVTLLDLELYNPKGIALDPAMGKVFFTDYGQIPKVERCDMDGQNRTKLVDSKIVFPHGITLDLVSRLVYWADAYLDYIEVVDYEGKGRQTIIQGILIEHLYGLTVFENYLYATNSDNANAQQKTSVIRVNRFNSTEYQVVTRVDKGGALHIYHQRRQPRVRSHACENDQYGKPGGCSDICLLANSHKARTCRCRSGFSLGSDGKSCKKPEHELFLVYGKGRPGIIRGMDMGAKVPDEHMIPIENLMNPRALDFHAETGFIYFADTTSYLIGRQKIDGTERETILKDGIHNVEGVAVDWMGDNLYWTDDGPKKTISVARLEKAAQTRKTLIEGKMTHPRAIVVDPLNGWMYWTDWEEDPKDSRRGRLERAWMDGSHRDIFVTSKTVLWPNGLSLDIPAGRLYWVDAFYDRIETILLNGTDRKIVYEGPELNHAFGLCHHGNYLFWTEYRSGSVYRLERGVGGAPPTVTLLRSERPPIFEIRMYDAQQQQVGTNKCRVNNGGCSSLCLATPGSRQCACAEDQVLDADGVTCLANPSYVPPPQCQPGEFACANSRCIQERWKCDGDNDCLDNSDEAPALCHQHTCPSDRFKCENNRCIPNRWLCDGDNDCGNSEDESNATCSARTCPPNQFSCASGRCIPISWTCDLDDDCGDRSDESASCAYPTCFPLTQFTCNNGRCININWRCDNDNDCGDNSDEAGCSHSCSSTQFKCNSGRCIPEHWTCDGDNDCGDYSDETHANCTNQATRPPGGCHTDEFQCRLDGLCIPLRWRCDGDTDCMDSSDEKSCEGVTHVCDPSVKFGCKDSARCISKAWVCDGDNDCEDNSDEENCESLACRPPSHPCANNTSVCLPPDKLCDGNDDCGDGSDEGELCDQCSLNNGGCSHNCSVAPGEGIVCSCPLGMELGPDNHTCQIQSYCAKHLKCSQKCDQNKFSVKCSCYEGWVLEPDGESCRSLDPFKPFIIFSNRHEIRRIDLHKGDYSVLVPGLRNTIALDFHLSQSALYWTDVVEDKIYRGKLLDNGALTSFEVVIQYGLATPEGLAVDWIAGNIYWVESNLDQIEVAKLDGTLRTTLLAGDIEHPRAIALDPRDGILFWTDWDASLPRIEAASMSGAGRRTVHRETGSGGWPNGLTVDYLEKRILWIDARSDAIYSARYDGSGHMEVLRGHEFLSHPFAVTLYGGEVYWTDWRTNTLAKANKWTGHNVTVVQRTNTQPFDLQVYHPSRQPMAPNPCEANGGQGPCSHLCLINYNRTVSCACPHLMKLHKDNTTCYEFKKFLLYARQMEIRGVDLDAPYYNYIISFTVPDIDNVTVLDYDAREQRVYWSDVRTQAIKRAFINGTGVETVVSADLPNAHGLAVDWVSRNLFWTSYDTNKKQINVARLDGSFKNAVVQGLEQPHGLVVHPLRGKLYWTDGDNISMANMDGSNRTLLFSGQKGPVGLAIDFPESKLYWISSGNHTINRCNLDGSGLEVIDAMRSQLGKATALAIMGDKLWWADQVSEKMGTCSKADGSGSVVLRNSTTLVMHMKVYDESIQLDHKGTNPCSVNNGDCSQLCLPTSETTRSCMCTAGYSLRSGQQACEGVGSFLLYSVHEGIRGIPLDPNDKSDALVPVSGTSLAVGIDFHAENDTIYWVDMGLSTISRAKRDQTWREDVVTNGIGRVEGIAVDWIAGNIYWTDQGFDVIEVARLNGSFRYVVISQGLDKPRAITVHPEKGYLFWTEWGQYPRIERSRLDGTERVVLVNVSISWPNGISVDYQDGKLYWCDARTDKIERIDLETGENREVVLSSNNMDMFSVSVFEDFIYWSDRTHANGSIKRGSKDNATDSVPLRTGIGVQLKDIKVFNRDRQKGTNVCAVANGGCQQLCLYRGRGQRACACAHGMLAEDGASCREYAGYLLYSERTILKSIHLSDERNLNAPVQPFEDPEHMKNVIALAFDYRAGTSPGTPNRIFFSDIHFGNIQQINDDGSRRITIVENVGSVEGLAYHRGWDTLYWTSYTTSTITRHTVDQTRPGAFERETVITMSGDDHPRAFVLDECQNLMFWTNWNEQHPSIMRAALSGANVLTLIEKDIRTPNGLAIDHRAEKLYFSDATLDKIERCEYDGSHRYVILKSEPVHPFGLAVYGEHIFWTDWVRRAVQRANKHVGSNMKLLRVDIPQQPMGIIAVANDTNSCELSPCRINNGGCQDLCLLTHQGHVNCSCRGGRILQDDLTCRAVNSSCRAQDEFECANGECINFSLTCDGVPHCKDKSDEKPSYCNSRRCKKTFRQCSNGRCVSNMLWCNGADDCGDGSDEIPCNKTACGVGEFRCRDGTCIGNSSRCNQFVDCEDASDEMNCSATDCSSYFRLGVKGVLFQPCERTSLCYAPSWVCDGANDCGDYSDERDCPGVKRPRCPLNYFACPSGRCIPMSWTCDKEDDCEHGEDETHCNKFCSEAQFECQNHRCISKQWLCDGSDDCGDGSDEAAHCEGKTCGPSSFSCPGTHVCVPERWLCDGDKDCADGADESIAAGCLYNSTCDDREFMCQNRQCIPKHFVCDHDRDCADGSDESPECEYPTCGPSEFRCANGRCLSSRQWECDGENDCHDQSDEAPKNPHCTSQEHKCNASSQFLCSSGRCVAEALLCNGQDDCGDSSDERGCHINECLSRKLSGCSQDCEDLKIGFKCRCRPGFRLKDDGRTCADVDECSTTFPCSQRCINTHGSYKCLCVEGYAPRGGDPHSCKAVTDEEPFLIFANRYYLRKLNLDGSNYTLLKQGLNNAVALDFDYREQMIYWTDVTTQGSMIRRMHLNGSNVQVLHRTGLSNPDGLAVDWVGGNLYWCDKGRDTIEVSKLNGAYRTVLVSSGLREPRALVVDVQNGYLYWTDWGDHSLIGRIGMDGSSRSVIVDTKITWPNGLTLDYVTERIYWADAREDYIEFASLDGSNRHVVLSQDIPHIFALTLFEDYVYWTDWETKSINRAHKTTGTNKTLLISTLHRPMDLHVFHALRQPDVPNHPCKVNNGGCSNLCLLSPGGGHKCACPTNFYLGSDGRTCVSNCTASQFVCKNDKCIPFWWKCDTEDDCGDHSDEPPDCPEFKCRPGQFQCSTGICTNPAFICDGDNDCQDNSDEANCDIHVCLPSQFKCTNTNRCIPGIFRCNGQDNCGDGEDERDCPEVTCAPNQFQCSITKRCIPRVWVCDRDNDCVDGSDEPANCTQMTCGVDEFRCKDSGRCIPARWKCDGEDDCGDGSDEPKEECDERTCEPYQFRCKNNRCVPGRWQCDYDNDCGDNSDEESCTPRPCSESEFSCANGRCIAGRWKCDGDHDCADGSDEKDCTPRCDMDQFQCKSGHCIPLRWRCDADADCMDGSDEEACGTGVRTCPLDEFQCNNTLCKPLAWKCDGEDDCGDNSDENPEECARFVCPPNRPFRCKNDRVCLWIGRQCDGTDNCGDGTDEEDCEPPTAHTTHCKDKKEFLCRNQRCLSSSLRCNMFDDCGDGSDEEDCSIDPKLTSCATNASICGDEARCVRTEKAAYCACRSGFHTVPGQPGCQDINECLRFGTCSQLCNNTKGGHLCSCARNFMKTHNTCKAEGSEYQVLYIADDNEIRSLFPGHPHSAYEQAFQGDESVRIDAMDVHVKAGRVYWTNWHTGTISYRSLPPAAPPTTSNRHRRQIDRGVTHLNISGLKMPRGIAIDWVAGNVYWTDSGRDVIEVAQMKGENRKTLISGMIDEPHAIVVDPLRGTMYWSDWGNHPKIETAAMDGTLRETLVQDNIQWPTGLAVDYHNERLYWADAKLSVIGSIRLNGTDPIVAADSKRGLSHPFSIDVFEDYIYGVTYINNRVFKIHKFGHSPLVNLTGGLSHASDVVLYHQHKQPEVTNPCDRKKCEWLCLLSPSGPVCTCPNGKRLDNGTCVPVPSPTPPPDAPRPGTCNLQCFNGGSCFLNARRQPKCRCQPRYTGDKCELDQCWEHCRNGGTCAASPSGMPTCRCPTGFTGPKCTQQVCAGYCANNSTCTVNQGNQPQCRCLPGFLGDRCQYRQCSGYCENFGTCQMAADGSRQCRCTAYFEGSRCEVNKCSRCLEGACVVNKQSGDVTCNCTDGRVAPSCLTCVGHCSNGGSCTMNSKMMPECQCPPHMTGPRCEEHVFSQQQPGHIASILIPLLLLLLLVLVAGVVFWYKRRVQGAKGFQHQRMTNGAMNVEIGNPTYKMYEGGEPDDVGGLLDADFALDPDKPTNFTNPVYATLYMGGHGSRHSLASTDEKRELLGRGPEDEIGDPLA

What all share (assay): SPR
Assay [1] has as its target Full-length human LRP1 purified from placenta (human) (UniProt Q07954).
Assay [2] has as its target Recombinant human LRP1 cluster IV Fc chimera (human).
The target in assay [3] is Recombinant human LRP1 cluster II Fc chimera (human).

In turn, “hyperphosphorylated 2N4R tau produced in Sf9 cells (from UniProt P10636-8 1-441) (natural protein; hyperphosphorylated (sites not printed))” registered a Kd in assay [1] of 243 nM.
With “recombinant human tau 2N4R (as used in SPR) (from UniProt P10636-8 1-441) (natural protein)”, the figures for the Kd in assay [2], in assay [3] and in assay [1] were 81 nM, 69 nM and 60 nM, respectively.
